PMC6733930
Changes are numbered by the printed parent chain. In names and notes the source's numbering stands.

Chains of the proteins cited; added tags and fusions are not shown. Lines headed by an entry give the natural chain unless they say otherwise; changes in a name come on top.
UniProt P32851, whole entry, chain 1 of 3: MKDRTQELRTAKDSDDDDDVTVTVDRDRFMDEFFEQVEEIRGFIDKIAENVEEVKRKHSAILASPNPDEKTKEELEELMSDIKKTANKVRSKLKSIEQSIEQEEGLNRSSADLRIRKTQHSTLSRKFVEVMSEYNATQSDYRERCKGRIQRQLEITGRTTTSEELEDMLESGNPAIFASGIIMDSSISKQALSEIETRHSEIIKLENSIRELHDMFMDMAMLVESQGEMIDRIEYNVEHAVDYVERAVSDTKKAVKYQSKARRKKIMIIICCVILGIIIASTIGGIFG
UniProt P63041: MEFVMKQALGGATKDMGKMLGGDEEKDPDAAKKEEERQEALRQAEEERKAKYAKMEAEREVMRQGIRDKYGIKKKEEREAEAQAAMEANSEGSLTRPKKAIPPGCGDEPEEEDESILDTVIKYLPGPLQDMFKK

B1: His6-HaloTag synaptotagmin 1 C2B (aa 273-421), wild type, P21707 R398Q; R399Q (protein)
chain: LGDICFSLRYVPTAGKLTVVILEAKNLKKMDVGGLSDPYVKIHLMQNGKRLKKKKTTIKKNTLNPYYNESFSFEVPFEQIQKVQVVVTVLDYDKIGKNDAIGKVFVGYNSTGAELRHWSDMLANPQQPIAQWHTLQVEEEVDAMLAVKK
B2: His6-HaloTag synaptotagmin 1 C2B (aa 273-421), wild type, P21707 K326E; K327E (protein)
chain: B1 chain with K54E, K55E, Q126R, Q127R

Experiments:
[1] = target: trans-SNARE complex in nanodiscs with dye-labelled cysteine-free syntaxin1a (cysteine at residue 203) (UniProt P32851); experiment: single-molecule colocalisation (three-colour TIRF microscopy); trans-SNARE NDs (0.5 µM) incubated with C2AB (1 µM) and complexin I (1 µM) at RT for 10 min, diluted to 10 pM, immobilised on a glass slide, unbound protein washed out; 0.5 mM CaCl2, 100 mM KCl, 25 mM HEPES pH 7.4; only single trans-SNARE complexes analysed
[2] = target: trans-SNARE complex in nanodiscs (t-SNARE heterodimer in one nanodisc, v-SNARE in another), P32851;P60881;P63045; experiment: HaloTag pull-down of nanodiscs, Coomassie gel densitometry; details: chain shown with the change, read off a plot

| Molecule | percent of single trans-SNARE complexes with both C2AB and complexin bound [1] | response (relative t-SNARE binding) ([2]; +Ca2+, parent: est. 3.5) | response (relative t-SNARE binding) ([2]; -Ca2+, parent: est. 1.0) |
| --- | --- | --- | --- |
| complexin I, cysteine-free, cysteine at residue 131, labelled with Alexa Fluor 488 (from UniProt P63041 1-134) (natural protein) | 5.3% |  |  |
| synaptotagmin 1 C2AB (residues 96-421), cysteine-free, cysteine at residue 234, dye-labelled (from UniProt P21707 96-421) (domain or fragment) | 5.3% |  |  |
| B1 |  | 2 | 0.45 |
| B2 |  | 0.7 | 0.3 |
